# Values joined by “and” are separate entries in the source; they are usually repeats but may differ in a detail not shown here. Equal values may be shown once.
# System: Calf thymus DNA
# Details: Bos taurus
row,Compound,Log K
1,CN(C)CCNC(=O)c1cc(Cl)cc2nc3ccccc3nc12,7.08 and 7.22
2,O=C(NCCNCCO)c1cccc2nc3ccccc3nc12,6.32 and 6.5
3,COc1ccc2nc3ccccc3nc2c1C(=O)NCCN(C)C,6.65 and 6.7
4,Cc1cc(C(=O)NCCN(C)C)c2nc3ccccc3nc2c1,6.48 and 6.55
5,CN(C)CCNC(=O)c1cccc2nc3ccc4ccccc4c3nc12,7.12 and 6.7
6,Cc1ccc(C(=O)NCCN(C)C)c2nc3ccccc3nc12,6.78 and 6.73
7,COc1cc(C(=O)NCCN(C)C)c2nc3ccccc3nc2c1,6.96 and 7
8,COc1cccc2nc3c(C(=O)NCCN(C)C)cccc3nc12,6.63 and 6.47
9,CN(C)CCNC(=O)c1cccc2nc3c(Cl)cccc3nc12,6.76 and 6.93
10,CN(C)CCNC(=O)c1cc2ccccc2c2nc3ccccc3nc12,7.63 and 7.29
11,Cc1ccc2nc3c(C(=O)NCCN(C)C)cccc3nc2c1,6.8 and 6.82
12,O=C(NCCN1CCOCC1)c1cccc2nc3ccccc3nc12,6.42 and 6.49
13,Cc1cccc2nc3c(C(=O)NCCN(C)C)cccc3nc12,6.68 and 6.74
14,CN(C)CCCCNC(=O)c1cccc2nc3ccccc3nc12,6.3 and 6.34
15,CN(C)CCNC(=O)c1c(Cl)ccc2nc3ccccc3nc12,6.24 and 6.22
16,COc1ccc2nc3c(C(=O)NCCN(C)C)cccc3nc2c1,6.4 and 6.3
17,CN(C)CCNC(=O)c1cccc2nc3ccccc3nc12,6.58 and 6.86
18,CCN(CC)CCNC(=O)c1cccc2nc3ccccc3nc12,6.4 and 6.26
19,CN(C)CCCNC(=O)c1cccc2nc3ccccc3nc12,6.29 and 6.14
20,COc1ccc2nc3cccc(C(=O)NCCN(C)C)c3nc2c1,6.48 and 6.96
21,Cc1cccc2nc3cccc(C(=O)NCCN(C)C)c3nc12,6.76 and 6.93
22,COc1cccc2nc3cccc(C(=O)NCCN(C)C)c3nc12,6.59 and 7
23,Cc1ccc2nc3cccc(C(=O)NCCN(C)C)c3nc2c1,6.43 and 6.82
24,CN(C)CCNC(=O)c1cccc2nc3c(ccc4ccccc43)nc12,7.75 and 7.63
25,COc1ccc(C(=O)NCCN(C)C)c2nc3ccccc3nc12,6.58 and 6.6
